Protein sequences, listed by entry. Tags and fused reporters are not part of them. Residues count along the entry.
UniProt P07949, 29-1114 V804L limits assumed: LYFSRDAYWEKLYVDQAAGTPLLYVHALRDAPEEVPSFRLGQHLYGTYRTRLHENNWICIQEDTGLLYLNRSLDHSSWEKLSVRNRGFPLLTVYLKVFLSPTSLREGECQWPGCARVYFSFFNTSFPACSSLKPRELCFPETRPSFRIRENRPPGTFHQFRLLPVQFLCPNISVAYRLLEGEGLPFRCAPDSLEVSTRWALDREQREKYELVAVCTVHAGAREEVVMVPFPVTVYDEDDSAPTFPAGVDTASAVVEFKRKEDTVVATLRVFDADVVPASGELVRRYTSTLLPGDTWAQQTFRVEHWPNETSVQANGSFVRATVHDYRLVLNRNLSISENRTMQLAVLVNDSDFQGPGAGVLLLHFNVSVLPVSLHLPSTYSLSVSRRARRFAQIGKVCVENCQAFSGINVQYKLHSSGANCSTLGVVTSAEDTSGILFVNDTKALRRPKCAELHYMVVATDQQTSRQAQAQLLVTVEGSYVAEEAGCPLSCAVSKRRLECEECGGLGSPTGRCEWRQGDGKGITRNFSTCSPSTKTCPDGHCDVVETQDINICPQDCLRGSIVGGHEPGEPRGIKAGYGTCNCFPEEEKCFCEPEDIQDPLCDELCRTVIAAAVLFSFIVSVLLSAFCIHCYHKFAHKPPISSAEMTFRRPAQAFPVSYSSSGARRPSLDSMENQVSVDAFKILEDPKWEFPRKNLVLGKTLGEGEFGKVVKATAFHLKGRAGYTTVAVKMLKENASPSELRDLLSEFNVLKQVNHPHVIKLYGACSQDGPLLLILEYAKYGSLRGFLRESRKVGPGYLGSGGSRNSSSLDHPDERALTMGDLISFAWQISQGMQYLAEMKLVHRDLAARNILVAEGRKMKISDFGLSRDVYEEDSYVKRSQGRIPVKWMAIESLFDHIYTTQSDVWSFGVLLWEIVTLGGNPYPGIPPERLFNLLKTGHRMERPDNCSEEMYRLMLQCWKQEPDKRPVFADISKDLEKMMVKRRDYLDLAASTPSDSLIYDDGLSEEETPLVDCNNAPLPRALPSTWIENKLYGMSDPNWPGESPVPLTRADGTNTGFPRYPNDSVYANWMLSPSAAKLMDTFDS

In ChEMBL document CHEMBL5726467, “2-(pyridin-3-yl)-pyrimidine derivatives as RET inhibitors” (2019):

Target: Proto-oncogene tyrosine-protein kinase receptor Ret (Homo sapiens, UniProt P07949, V804L)
Format: organism-based

Q: With `Cc1cc(Nc2cc(C)[nH]n2)nc(-c2ccc(C(=O)NCc3ccc(OC(F)(F)F)cc3)nc2)n1` as the compound, how does the IC50 read?
A: > 100 nM
